Data: patent US7265130B2, “NPY Y5 antagonist” (Shionogi & Co., Ltd., priority 1999, dated 2007)

Sequences of proteins named here, by UniProt entry; tags and fusion partners are left off.
UniProt Q15761, whole entry: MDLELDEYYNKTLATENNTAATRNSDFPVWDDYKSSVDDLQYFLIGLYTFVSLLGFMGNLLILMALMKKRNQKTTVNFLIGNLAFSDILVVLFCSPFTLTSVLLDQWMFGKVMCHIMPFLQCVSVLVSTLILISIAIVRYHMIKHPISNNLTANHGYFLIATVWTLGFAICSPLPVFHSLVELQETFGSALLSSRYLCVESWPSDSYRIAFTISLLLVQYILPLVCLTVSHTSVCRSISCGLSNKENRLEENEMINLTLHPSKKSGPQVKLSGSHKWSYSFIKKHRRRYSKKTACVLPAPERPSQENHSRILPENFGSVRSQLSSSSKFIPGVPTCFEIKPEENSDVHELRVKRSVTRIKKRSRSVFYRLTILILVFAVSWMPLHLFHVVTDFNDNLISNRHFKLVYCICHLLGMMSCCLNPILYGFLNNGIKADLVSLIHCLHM

Experiments:
human NPY Y5 receptor [1] = target: T1, human NPY Y5 receptor (Homo sapiens, UniProt Q15761); assay: cAMP production inhibitory activity in CHO cells; details: read-out: cAMP IC50; against 50 nM NPY inhibition of forskolin stimulated cAMP, CHO cells expressing human NPY Y5 receptor
human NPY Y5 receptor [2] = target: T1, human NPY Y5 receptor; assay: Affinity for NPY Y5 receptor ([125I] peptide YY binding, CHO cell membranes); details: read-out: binding IC50; inhibition of specific [125I] peptide YY binding, membranes of CHO cells expressing NPY Y5 receptor

SMILES	IC50 (human NPY Y5 receptor [1]) [nM]	IC50 (human NPY Y5 receptor [2]) [nM]
CC(C)(C)S(=O)(=O)NCCCCC(=O)Nc1ccc(C(F)(F)F)cc1	39	7.8
CC(C)S(=O)(=O)NCCCCC(=O)Nc1ccc(C(F)(F)F)cc1	57	6.1
CC(C)NC(=O)c1ccc(NC(=O)[C@H]2CC[C@H](NS(=O)(=O)C(C)(C)C)CC2)cc1	5.5	0.67

The next lines start with the values.

IC50 (human NPY Y5 receptor [1]) [nM]	IC50 (human NPY Y5 receptor [2]) [nM]	SMILES
86	7	CC(C)(C)S(=O)(=O)NCCCCC(=O)Nc1ccc2c(c1)CCC2
79	9.9	CC(C)S(=O)(=O)NCCCCC(=O)Nc1ccc2c(c1)CCC2
